Test results published in ChEMBL document CHEMBL1133588 (J Med Chem, 2000).

Amino acid sequences for entries named in this document (tags omitted). A change or cut given only in a name is not applied to a line headed by its entry.
UniProt P08482: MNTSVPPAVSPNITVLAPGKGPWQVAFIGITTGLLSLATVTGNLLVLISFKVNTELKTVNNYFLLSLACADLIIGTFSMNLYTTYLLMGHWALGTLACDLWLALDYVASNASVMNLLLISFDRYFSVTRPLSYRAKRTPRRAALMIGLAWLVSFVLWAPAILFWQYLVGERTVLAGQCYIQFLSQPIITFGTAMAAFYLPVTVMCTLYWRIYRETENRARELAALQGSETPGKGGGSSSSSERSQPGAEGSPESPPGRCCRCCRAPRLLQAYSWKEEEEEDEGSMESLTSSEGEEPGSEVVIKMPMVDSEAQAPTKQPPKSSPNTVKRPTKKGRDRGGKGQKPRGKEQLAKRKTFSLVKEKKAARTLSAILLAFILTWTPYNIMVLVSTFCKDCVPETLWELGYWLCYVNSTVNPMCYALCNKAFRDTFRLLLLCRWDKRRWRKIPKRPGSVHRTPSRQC

Biological target: Muscarinic acetylcholine receptor M1 (Rattus norvegicus, UniProt P08482)
Test: Binding affinity at Muscarinic acetylcholine receptor M1 in Rat brain homogenate by [3H]pirenzepine displacement.
Format: tissue-based

## CN1C2CCC1CC(OC(c1ccc(F)cc1)c1ccc(F)cc1)C2 (stereo unspecified) [DIFLUOROBENZTROPINE]
  Ki: 11.6 nM
